{"source": "paper PMC5989272", "about": "“Transfer Hydrogenation and Antiproliferative Activity of Tethered Half-Sandwich Organoruthenium Catalysts” (Organometallics, 2018)", "key": {"[1]": {"test_system": "A2780 human ovarian cancer cells", "experiment": "Cell viability on coincubation with sodium formate (SRB)", "settings": "complex at 1/3 × IC50, 24 h + 72 h recovery"}, "[2]": {"settings": "2 mM complex, GSH 10 mol equiv, 24 h incubation at 310 K", "method": "A second set of experiments investigated the time dependence of reactions of 2 with GSH (20 mM) in the mole ratio of 1/20, monitored by ^1H NMR (600 MHz) spectroscopy under conditions similar to those above (pH* 7.2, 310 K), from 5 min to 24 h."}}}
{"substance": "[Ru(η^6-Ph(CH2)3-ethylenediamine-N-Ms)Cl] [Complex 1]", "values": [{"measurement": "Percentage of Cell Viability", "setting": "[1]; 0 mM formate", "value": 96, "unit": "%"}, {"measurement": "Percentage of Cell Viability", "setting": "[1]; 0.5 mM formate", "value": "91 ± 2", "unit": "%"}, {"measurement": "Percentage of Cell Viability", "setting": "[1]; 1.0 mM formate", "value": "78 ± 3", "unit": "%"}, {"measurement": "Percentage of Cell Viability", "setting": "[1]; 2.0 mM formate", "value": 74, "unit": "%"}, {"measurement": "stability of SG adduct after 24 h", "setting": "[2]", "value": "decomposed after 24 h"}]}
{"substance": "[Ru(η^6-Ph(CH2)3-ethylenediamine-N-Nb)Cl] [Complex 4]", "values": [{"measurement": "Percentage of Cell Viability", "setting": "[1]; 0 mM formate", "value": 95, "unit": "%"}, {"measurement": "Percentage of Cell Viability", "setting": "[1]; 0.5 mM formate", "value": "88 ± 2", "unit": "%"}, {"measurement": "Percentage of Cell Viability", "setting": "[1]; 1.0 mM formate", "value": "85 ± 2", "unit": "%"}, {"measurement": "Percentage of Cell Viability", "setting": "[1]; 2.0 mM formate", "value": 81, "unit": "%"}, {"measurement": "stability of SG adduct after 24 h", "setting": "[2]", "value": "appeared to be stable"}]}
{"substance": "[Ru(η^6-Ph(CH2)3-ethylenediamine-N-Tf)Cl] [Complex 3]", "values": [{"measurement": "Percentage of Cell Viability", "setting": "[1]; 0 mM formate", "value": "79 ± 2", "unit": "%"}, {"measurement": "Percentage of Cell Viability", "setting": "[1]; 0.5 mM formate", "value": "75 ± 2", "unit": "%"}, {"measurement": "Percentage of Cell Viability", "setting": "[1]; 1.0 mM formate", "value": "72 ± 3", "unit": "%"}, {"measurement": "Percentage of Cell Viability", "setting": "[1]; 2.0 mM formate", "value": "63 ± 2", "unit": "%"}, {"measurement": "stability of SG adduct after 24 h", "setting": "[2]", "value": "appeared to be stable"}]}
